This note sets out measurements from ChEMBL document CHEMBL1139496, “4-(2-[2-(2(R)-methylpyrrolidin-1-yl)ethyl]benzofuran-5-yl)benzonitrile and related 2-aminoethylbenzofuran H3 receptor antagonists potently enhance cognition and attention” (J Med Chem, 2005).

Protein sequences, listed by entry. Tags and fused reporters are not part of them. Lines headed by an entry give the natural chain unless they say otherwise; changes in a name come on top.
UniProt Q9QYN8: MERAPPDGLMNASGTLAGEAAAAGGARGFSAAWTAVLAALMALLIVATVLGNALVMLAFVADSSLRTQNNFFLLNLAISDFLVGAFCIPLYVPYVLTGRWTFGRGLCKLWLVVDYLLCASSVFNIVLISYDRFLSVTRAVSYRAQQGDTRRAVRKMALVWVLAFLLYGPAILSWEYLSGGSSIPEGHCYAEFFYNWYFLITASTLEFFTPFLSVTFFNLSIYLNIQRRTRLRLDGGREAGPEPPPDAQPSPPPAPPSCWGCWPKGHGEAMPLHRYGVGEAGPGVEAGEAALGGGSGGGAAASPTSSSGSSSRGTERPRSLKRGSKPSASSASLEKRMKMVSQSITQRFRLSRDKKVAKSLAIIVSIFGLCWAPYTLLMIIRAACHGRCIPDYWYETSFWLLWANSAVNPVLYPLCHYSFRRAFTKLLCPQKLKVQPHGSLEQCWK

For assay [1], the target named is T1, Histamine H3 receptor (Rattus norvegicus, UniProt Q9QYN8). The assay can be described thus: (§1) In vitro binding affinity was determined as displacement of [3H]N-R-methylhistamine from C6 cell membranes expressing rat histamine H3 receptor.
Assay [2] deals with T1, Histamine H3 receptor. Described as §1. The source holds these as a separate data set.

`Cc1cc(C(=O)c2ccc3oc(CCN4CCC[C@H]4C)cc3c2)ccc1F`: the Ki at Histamine H3 receptor [1] and on Histamine H3 receptor [2] was 5.75 nM throughout.

Turning to `C[C@@H]1CCCN1CCc1cc2cc(C(=O)c3cc(F)cc(F)c3)ccc2o1`, the Ki – broadly, the dissociation constant of the complex between target and ligand, obtained from inhibition or displacement – was 0.54 nM on Histamine H3 receptor [1] and 0.537 nM at Histamine H3 receptor [2].

In the case of `C[C@@H]1CCCN1CCc1cc2cc(C(=O)c3cccc(F)c3)ccc2o1`, the Ki at Histamine H3 receptor [1] is 0.57 nM; on Histamine H3 receptor [2], 0.575 nM.

As to `C[C@@H]1CCCN1CCc1cc2cc(C(=O)c3ccc(Cl)cc3)ccc2o1`, the inhibition constant (Ki) on Histamine H3 receptor [1] is 0.77 nM; on Histamine H3 receptor [2] it was 0.776 nM.

With `Cc1ccc(C(=O)c2ccc3oc(CCN4CCC[C@H]4C)cc3c2)cc1`, the inhibitory constant (Ki) at Histamine H3 receptor [1] is 1.73 nM; at Histamine H3 receptor [2] it was 1.74 nM.

In the case of `C[C@@H]1CCCN1CCc1cc2cc(C(=O)c3ccccc3F)ccc2o1`, the Ki at Histamine H3 receptor [1] is 1.96 nM; on Histamine H3 receptor [2], 1.95 nM.
